Test results reported in PubChem BioAssay AID651707 (NMMLSC, 2012).
The entries are a selection whose mix differs from that of the whole data set. Some results for these compounds are left out of this collection, so the calls shown say nothing about other tests. Activity calls are given as the source filed them.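 The calls were made as follows: active = over 5% cells positive for green fluorescent reporter, or over 2% positive for both it and APC stain; inactive = the rest, inconclusive results apart.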

Assay: fluorescent artefacts in myeloid progenitor cells – cell-based, flow cytometry, GFP/APC, Cherry Pick01, artefact control for AML myeloid differentiation project, confirmation (AID 651707);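 also: range taken on the double positive population between DMSO and positive control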
Conditions: ER-HoxA9 myeloid progenitors, no estrogen, GFP autofluorescence flow cytometry; hits give high values; vehicle wells 0%, positive control 100%

Compound | fluorescence response
CCN(CC)CC(C)C(C)OC(=O)C(O)(c1ccccc1)c1ccccc1 (stereo unspecified) | inactive: 0%
